The assay addresses T1, Aldo-keto reductase family 1 member C4 (Homo sapiens, UniProt P17516).
T1 sequence (P17516 whole entry): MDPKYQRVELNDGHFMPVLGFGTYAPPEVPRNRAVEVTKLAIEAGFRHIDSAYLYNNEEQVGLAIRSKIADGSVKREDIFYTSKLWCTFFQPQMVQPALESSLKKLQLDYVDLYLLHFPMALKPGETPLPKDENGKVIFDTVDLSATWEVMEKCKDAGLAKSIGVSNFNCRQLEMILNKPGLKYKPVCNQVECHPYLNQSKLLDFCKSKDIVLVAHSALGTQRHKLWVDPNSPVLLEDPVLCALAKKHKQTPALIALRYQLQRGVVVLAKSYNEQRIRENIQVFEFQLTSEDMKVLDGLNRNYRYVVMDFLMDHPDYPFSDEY
The assay can be described thus: Inhibition of recombinant AKR1C4 using S-tetralol as substrate by fluorimetry. The procedure, abridged:
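Continuous NADP+-dependent oxidation of S-tetralol, read as NADPH fluorescence at 340/460 nm. Buffer was 100 mM phosphate pH 7.0 with 200 µM NADP+ and 4% DMSO. […] Enzyme was 111, 86, 95 and 184 nM respectively. Initial velocities were fitted to give IC50. Mean of two independent experiments.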

SMILES strings stand for the structures.

Consider one compound from ChEMBL document CHEMBL2069201, “N-Benzoyl anthranilic acid derivatives as selective inhibitors of aldo-keto reductase AKR1C3” (Bioorg Med Chem Lett, 2012).

On to `O=C(Nc1ccc([N+](=O)[O-])cc1C(=O)O)c1cccc(O)c1`, for which the IC50 came out at 32.3 µM.

As usually defined, the IC50 is the concentration at which inhibition is half-maximal.
